Measured values: patent US6916845B2, “Method for prevention and treatment of male and female sexual dysfunction” (priority 1999, dated 2005)

System: PDE4 isolated from human liver tissue
Experiment: Inhibition of cAMP specific PDE4, two-step radioisotope procedure
Format: biochemical
Protocol: PDE5 and PDE4 were isolated from human platelets and liver tissue using a Pharmacia FPLC system and Mono Q column. The cyclic nucleotide PDE5/PDE4 activities in FPLC fractions were determined using a modification of the two-step radioisotope procedure ([^3H]GMP/[^3H]AMP).

COc1ccc(Cc2nccc3cc(OC)c(OC)cc23)cc1OC [Papaverine, papaverine]
IC50: 3.07 µM
